In ChEMBL document CHEMBL1127698, “Matrix metalloproteinase inhibitors containing a (carboxyalkyl)amino zinc ligand: modification of the P1 and P2' residues” (J Med Chem, 1994):

Molecular target: T1, Interstitial collagenase (Homo sapiens, UniProt P03956)
T1 sequence (P03956 whole entry): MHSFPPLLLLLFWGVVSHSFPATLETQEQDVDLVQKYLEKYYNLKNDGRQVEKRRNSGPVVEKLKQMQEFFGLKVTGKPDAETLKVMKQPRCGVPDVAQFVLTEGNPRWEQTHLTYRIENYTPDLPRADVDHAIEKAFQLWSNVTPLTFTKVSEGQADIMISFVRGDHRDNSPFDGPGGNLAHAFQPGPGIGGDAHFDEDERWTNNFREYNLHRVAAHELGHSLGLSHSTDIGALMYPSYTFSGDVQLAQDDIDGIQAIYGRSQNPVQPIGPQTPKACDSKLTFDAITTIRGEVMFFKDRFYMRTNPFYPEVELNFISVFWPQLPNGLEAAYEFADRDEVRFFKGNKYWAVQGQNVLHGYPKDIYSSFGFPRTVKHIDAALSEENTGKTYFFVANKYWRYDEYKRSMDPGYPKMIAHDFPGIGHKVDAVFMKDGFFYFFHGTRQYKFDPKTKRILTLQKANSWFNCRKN
Assay: Activity against human collagenase (MMP-1).

**Q.** With CC(C)C[C@H](N[C@H](CCN1C(=O)c2cc3ccccc3cc2C1=O)C(=O)O)C(=O)Nc1ccccc1 as the molecule, how does the pIC50 read?
**A.** The pIC50 was 5.93.

pIC50: −log10 of the molar value.
